Measurements: patent US5268003A (priority 1992, dated 1993)

Experiments:
[1] = Differential Scanning Calorimetry (DSC), thermal sensitivity; assay type: physicochemical
[2] = Peracid stability in a heavy-duty liquid at 40° C.; conditions: 35% surface-actives, pH 4.5, borax/sorbitol, approximately 2 wt. % peracid
[3] = cited from earlier work
[4] = corrected to 100% peracid content, error is 5% or less

Compound: O=C(CCCCCCCCCCC(=O)OO)OO
- Energy Released (Cal g^-1) [1, 4]: 366 cal/g
- Energy Released (Kcal mol^-1) [1, 4]: 96 kcal/mol
- Onset of Self-Heating ([1]; heated at 5° C./minute from 30° C., sealed pans): 96 °C
- t1/2 at 40° C. [2]: 120 h
- stability under storage conditions ([3]; formulated with 10% surfactant): good stability
- half-life change ([3]; surfactant level of the formulation increased to 22%): decreased dramatically
